{
  "sequences": {"note": "By UniProt entry, the sequences of proteins in these tests, tags left out.", "UniProt P11229, whole entry": "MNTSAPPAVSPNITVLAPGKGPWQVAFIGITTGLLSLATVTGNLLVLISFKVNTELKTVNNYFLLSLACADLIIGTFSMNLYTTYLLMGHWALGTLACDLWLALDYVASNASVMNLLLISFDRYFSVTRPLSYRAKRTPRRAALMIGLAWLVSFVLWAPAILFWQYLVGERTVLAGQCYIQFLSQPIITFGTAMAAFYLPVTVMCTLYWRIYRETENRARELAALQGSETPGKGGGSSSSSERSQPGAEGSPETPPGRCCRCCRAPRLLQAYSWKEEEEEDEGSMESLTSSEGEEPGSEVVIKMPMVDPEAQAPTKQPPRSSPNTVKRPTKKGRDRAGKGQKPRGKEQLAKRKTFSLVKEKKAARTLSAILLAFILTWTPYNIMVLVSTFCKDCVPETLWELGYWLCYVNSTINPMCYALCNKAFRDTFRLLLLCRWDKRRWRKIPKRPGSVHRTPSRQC"},
  "source": "PubChem BioAssay AID588814",
  "about": "(The Scripps Research Institute Molecular Screening Center, 2011)",
  "note": "The entries are a selection whose mix differs from that of the whole data set. The source made the active and inactive calls.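 How the source made its calls: active means activation above the run's mean compound activation plus 3 SD (cut at about 16% in these data); inactive means the rest.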",
  "data": [
    {"target": "Muscarinic acetylcholine receptor M1 (Homo sapiens) (UniProt P11229)", "test": "CHRM1 activation via calcium signal – Fluo-8 calcium fluorescence, CHO-K1 cells, HTS, primary screen (AID 588814);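 further: peak over basal fluorescence ratio within a 140 s kinetic read after compound addition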", "settings": "CHO-K1 hM1, Fluo-8 calcium fluorescence, agonist mode; at 3 µM; stronger effect = higher value; 0% DMSO, 100% acetylcholine EC100", "values": [
      {"smiles": "CP(=O)(Nc1ccccc1F)Oc1ccccc1", "note": "(stereo not drawn)", "activation": "inactive: -3.64%"},
      {"smiles": "O=[N+]([O-])c1cc([N+](=O)[O-])c(Nc2ccc(Cl)cc2)c([N+](=O)[O-])c1", "activation": "inactive: 3.06%"},
      {"smiles": "CCc1ccc(OP(C)(=O)O)cc1", "activation": "inactive: -0.42%"},
      {"smiles": "COc1ccccc1OP(C)(=O)Nc1ccc(C)cc1C", "note": "(stereo not drawn)", "activation": "inactive: -0.37%"},
      {"smiles": "CP(=O)(Nc1ccccn1)Oc1ccccc1", "note": "(stereo not drawn)", "activation": "inactive: -0.58%"},
      {"smiles": "Cc1c(NP(C)(=O)Oc2ccc(C(C)C)cc2)c(=O)n(-c2ccccc2)n1C", "note": "(stereo not drawn)", "activation": "inactive: -2.65%"},
      {"smiles": "O=[N+]([O-])c1cc([N+](=O)[O-])c(Nc2ccccn2)c([N+](=O)[O-])c1", "activation": "inactive: -2.03%"},
      {"smiles": "CN(C)CCOC(=O)C(O)(c1ccccc1)C1CCCC1", "note": "(stereo not drawn)", "activation": "inactive: -14%"},
      {"smiles": "COc1ccc(OP(C)(=O)Nc2ccccn2)cc1", "note": "(stereo not drawn)", "activation": "inactive: -5.01%"},
      {"smiles": "COc1ccccc1OP(C)(=O)Nc1ccc(Br)cc1", "note": "(stereo not drawn)", "activation": "inactive: -2.9%"},
      {"smiles": "CP(=O)(Nc1ccc(Cl)cc1Cl)Oc1ccccc1", "note": "(stereo not drawn)", "activation": "inactive: -1.94%"},
      {"smiles": "CCCCCCCCCCCCCCCC1C[N+](C)(C)CCOP(C)(=O)O1", "note": "(stereo not drawn)", "activation": "inactive: -1.88%"},
      {"smiles": "CP(=O)(OCCOc1ccccc1)OCCOc1ccccc1", "activation": "inactive: -0.84%"},
      {"smiles": "COc1ccc(OP(C)(=O)Nc2ccccc2Br)cc1", "note": "(stereo not drawn)", "activation": "inactive: -7.74%"},
      {"smiles": "COc1ccccc1OP(C)(=O)Nc1ccc(C)c(C)c1", "note": "(stereo not drawn)", "activation": "inactive: -2.59%"},
      {"smiles": "Cc1cc(C)cc(OP(C)(=O)Nc2cccc(C(F)(F)F)c2)c1", "note": "(stereo not drawn)", "activation": "inactive: -8.97%"},
      {"smiles": "O=C1C(O)=C([N+](=O)[O-])C(=O)C(O)=C1[N+](=O)[O-]", "activation": "inactive: -3.77%"},
      {"smiles": "CP(=O)(OC12CC3CC(CC(C3)C1)C2)OC12CC3CC(CC(C3)C1)C2", "activation": "inactive: 1.73%"},
      {"smiles": "CCOC(=O)c1ccc(NP(C)(=O)Oc2ccc(Cl)cc2)cc1", "note": "(stereo not drawn)", "activation": "inactive: -5.35%"},
      {"smiles": "CN(C)C(=O)c1c([N+](=O)[O-])cc([N+](=O)[O-])cc1[N+](=O)[O-]", "activation": "inactive: -1.77%"},
      {"smiles": "CP(=O)(Nc1ccc(Cl)cc1)Oc1ccc(F)cc1", "note": "(stereo not drawn)", "activation": "inactive: -2.69%"},
      {"smiles": "COc1ccccc1OP(C)(=O)Nc1ccccc1Br", "note": "(stereo not drawn)", "activation": "inactive: -5.72%"},
      {"smiles": "CC(C)(C)c1ccc(OP(C)(=O)O)cc1", "activation": "inactive: -2.13%"},
      {"smiles": "CCc1ccc(OP(C)(=O)Nc2cccnc2)cc1", "note": "(stereo not drawn)", "activation": "inactive: -5.04%"},
      {"smiles": "CP(=O)(Oc1ccccc1)N1CCOC1=O", "note": "(stereo not drawn)", "activation": "inactive: -0.97%"},
      {"smiles": "O=C(OCCCN1CCCC1)C(O)(c1ccccc1)C1CCCCC1", "note": "(stereo not drawn)", "activation": "inactive: -6.34%"},
      {"smiles": "COc1ccccc1OP(C)(=O)Nc1c(C)n(C)n(-c2ccccc2)c1=O", "note": "(stereo not drawn)", "activation": "inactive: -2.2%"},
      {"smiles": "COc1ccc(OP(C)(=O)Nc2ccc(Br)cc2)cc1", "note": "(stereo not drawn)", "activation": "inactive: -7.64%"}
    ]}
  ]
}
